Laboratory results from patent US20200330467A1, “METHOD AND PHARMACEUTICAL COMPOSITIONS FOR THE TREATMENT OF MULTIPLE MYELOMA” (priority 2016, published 2020).

Tested on: primary myeloma cells from patients
Conditions: co-cultured with bone marrow environment and recombinant IL-6, n=8
Text: Results are median values of the numbers of myeloma cells in the culture wells.

Structure (SMILES): COc1cc2nc(N3CCCC3)nc(NCCCCCN3CCCC3)c2cc1OC [UNC0379]
- apoptosis of primary myeloma cells: significant apoptosis
